# Results taken from PMC12836348, “Alanine Mutagenesis Identifies Specific Amino Acids of Nemertide Alpha‑1 Activity and Its Binding to Target Receptors” (Journal of Natural Products, 2025).
# Test system: αβγδ
# Assay: Ion channel panel, nAChR αβγδ
# Assay type: cell-based
# Design: key: “+” means tested and produced effect; “–“ means tested but no effect
# Conditions: S12A at 5 μM, oocytes at −70 mV, 5 min incubation, n ≥ 3
# Source text: To assess the concentration–response relationships, data were fitted with the Hill equation: y = 100/[1 + (EC50/[toxin])^ h ], where y is the amplitude of the toxin-induced effect (y = I 30 ms/I peak where I 30 ms is the current value at 30 ms in the presence of toxin and I peak is the peak current amplitude in control conditions), EC50 is the toxin concentration at half-maximal efficacy, [toxin] is the toxin concentration, and h is the Hill coefficient. Potassium and calcium currents were evoked by a 500 ms depolarization to the voltage corresponding to the maximal activation of the channels in control conditions from a holding potential of −90 mV. Elicited currents were sampled at 1 kHz and filtered at 0.5 kHz. […] ASIC1a currents were measured in ND96 solutions at a pH of 7.4 and 4.5, at a holding potential of −70 mV during 400 s, and the data were filtered at 20 Hz. EnaC currents were measured by clamping oocytes at a holding potential of −60 mV and perfusing with low- (1 mM) and high- (96 mM) sodium ND96. Opioid currents were measured by clamping the potential to −70 mV and changing the perfusion solution from ND96 to high-potassium (HK) solution composed of 96 mM KCl, 2 mM NaCl, 1 mM MgCl2, 1.8 mM CaCl2, and 5 mM HEPES, with a final pH of 7.5. […] TRPV1 and TRPA1 currents were continuously monitored in a perfusing ND96 solution, following a protocol at −90 mV for 400 s. […]
smiles,measurement,value
CC[C@H](C)[C@@H]1NC(=O)[C@@H](NC(=O)CN)CSSC[C@@H]2NC(=O)[C@@H]3CSSC[C@@H](C(=O)N[C@@H](CC(N)=O)C(=O)N4C[C@H](O)C[C@H]4C(=O)N4C[C@H](O)C[C@H]4C(=O)N[C@@H](CC(N)=O)C(=O)N[C@@H](CCC(N)=O)C(=O)O)NC(=O)[C@H](CCCCN)NC(=O)[C@H](Cc4ccccc4)NC(=O)[C@H](CC(N)=O)NC(=O)[C@H](Cc4c[nH]c5ccccc45)NC(=O)CNC(=O)[C@H](CSSC[C@H](NC(=O)[C@H](Cc4ccccc4)NC(=O)[C@H](CO)NC(=O)CNC(=O)[C@H]([C@@H](C)O)NC(=O)[C@H](C)NC1=O)C(=O)N[C@@H]([C@@H](C)O)C(=O)N[C@@H](CC(C)C)C(=O)N[C@@H](C)C(=O)N[C@@H](CCCCN)C(=O)NCC(=O)N3)NC(=O)[C@H](CC(N)=O)NC(=O)[C@H](CCCCN)NC(=O)[C@H]([C@@H](C)O)NC2=O [Peptide S12A],effect on αβγδ,–
